Assay: Mouse plasma PK (Example 27, Table IX)
Settings: total AF-HPA by LC-MS/MS; single IV dose, CD-1 mice

Substance	Plasma PK AUC0 to 336	Plasma PK T1/2
Trastuzumab-((EG2-MI (2%)-(10 kDa PHF-BA (28%)-(AF-HPA-Ala (9%) [Example 18C]	25100 ng·h/mL	119 h
Trastuzumab-((EG2-MI (2%)-(10 kDa PHF-BA (28%)-(AF-HPA-Ala (9%) [Example 18B]	22700 ng·h/mL	139 h
Trastuzumab-((EG2-MI (2%)-(10 kDa PHF-BA (28%)-(AF-HPA-Ala (9%) [Example 18A]	19400 ng·h/mL	154 h
